Reference: US8937048B2, “Anti-angiogenic compounds” (Covx Technologies Ireland, Limited, priority 2008, dated 2015)
pIC50: −log10 of the molar value.

Molecular target: T1, human angiopoietin-2 protein (Homo sapiens, UniProt O15123)
T1 construct: purchased R&D Systems
T1 sequence (O15123 19-496): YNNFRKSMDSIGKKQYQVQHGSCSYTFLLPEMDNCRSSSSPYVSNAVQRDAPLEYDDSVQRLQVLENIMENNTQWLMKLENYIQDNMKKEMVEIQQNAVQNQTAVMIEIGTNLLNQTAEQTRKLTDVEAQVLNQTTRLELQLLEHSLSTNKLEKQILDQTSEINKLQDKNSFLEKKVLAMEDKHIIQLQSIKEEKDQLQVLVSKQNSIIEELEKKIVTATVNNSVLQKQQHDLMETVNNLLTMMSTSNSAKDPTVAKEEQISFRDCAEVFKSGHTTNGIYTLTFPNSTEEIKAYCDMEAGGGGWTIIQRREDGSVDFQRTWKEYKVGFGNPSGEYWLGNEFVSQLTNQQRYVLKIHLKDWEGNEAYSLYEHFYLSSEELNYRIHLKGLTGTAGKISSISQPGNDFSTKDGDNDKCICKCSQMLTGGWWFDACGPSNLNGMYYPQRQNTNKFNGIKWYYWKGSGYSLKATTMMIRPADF
Assay: Ang2 competitive ELISA (Ang-2 coated, Tie-2-Fc competition)
Format: binding
Conditions: Table 6, column P
Procedure: The ability of Ang2 binding compounds to interact with Ang2 was measured by competition with Tie-2. These tests were described in US2008166364 (and also in PCT/IE2007/000110), whose contents are herein incorporated by reference in their entirety. In particular, those portions of PCT/IE2007/000110 and US2008166364 detailing the advantages and disadvantages of various Ang2-binding peptides, and the advantages and disadvantages of covalently linking certain Ang2-binding peptides to catalytic antibodies (and those portions specifically relating to linking to h38C2), as well as the advantages and disadvantages of using specific residues of the respective Ang2-specific peptide as the linking residue (in this context, linking residue meaning the residue covalently linked to the linker (for example as used herein in Example 4)). For competitive ELISA, human angiopoietin-2 protein and Tie-2-Fc (R&D Systems) were reconstituted without carrier protein. Mouse anti-human Tie-2 (Pharmingen) was used as the primary antibody and goat anti-mouse-IgG 1-HRP (Pierce) was used as the secondary antibody. TMB substrate from Pierce was used.
High-binding half-well plates were coated with Ang-2 (100 ng/well) in 50 W PBS and incubated at 4° C. overnight. […] Color development was monitored and stopped with 25 μl of 2 M H2SO4. OD450 nm with a correction wavelength of 540 nm was measured.

`CSCC[C@H](NC(=O)[C@H](Cc1ccccc1)NC(=O)[C@H](CCC(N)=O)NC(=O)[C@H](CC(=O)O)NC(=O)[C@H](Cc1ccc(O)cc1)NC(=O)[C@H](CC(C)C)NC(=O)[C@@H](NC(=O)[C@H](CCCCN)NC(=O)[C@H](CC(=O)O)NC(=O)[C@H](CC(C)C)NC(=O)[C@H](CCC(=O)O)NC(=O)[C@H](CC(=O)O)NC(=O)[C@H](CC(C)C)NC(=O)[C@@H]1CCCN1C(=O)[C@H](CCC(N)=O)NC(=O)[C@H](Cc1ccc(O)cc1)NC(=O)[C@H](CCCCNC(C)=O)NC(=O)[C@H](CCC(N)=O)NC(C)=O)[C@@H](C)O)C(=O)N[C@@H](CC(C)C)C(=O)N[C@@H](CCC(N)=O)C(=O)N[C@@H](CCC(N)=O)C(=O)NCC(N)=O` [Compound 4022] showed a pIC50 of 7.84.
